ChEMBL document CHEMBL2440029, “Discovery and characterization of NVP-QAV680, a potent and selective CRTh2 receptor antagonist suitable for clinical testing in allergic diseases” (Bioorg Med Chem, 2013)

Assay: Antagonist activity at CRTh2 receptor in human isolated eosinophil assessed as inhibition of DK-PGD2-induced shape change after 5 mins by flow cytometry

IC50: 9 nM
SMILES: Cc1c(CC(=O)O)c2cccnc2n1S(=O)(=O)c1ccc(F)c(F)c1
